Drawing on publication PMC13089524, “Development of SYK NanoBRET cellular target engagement assays for gain–of–function variants” (Frontiers in chemical biology, 2024), this text covers IC50 for 1 compound.

The IC50 is the concentration needed to halve the response being measured.

Structures are written as SMILES.

One experiment deals with SYK(S550F)-NL (Homo sapiens, UniProt P43405, S550F). As to the kind of experiment: NanoBRET cellular target engagement assay in intact live HEK293 cells, SYK(S550F)-NL. A general note: BRET reads energy transfer from a luciferase to a nearby fluorophore.
For a further experiment, the target named is SYK(S550Y)-NL (Homo sapiens, UniProt P43405, S550Y). The experiment in a line: NanoBRET cellular target engagement assay in intact live HEK293 cells, SYK(S550Y)-NL.
A further experiment concerns the target SYK(P342T)-NL (Homo sapiens, UniProt P43405, P342T). As to the kind of experiment: NanoBRET cellular target engagement assay in intact live HEK293 cells, SYK(P342T)-NL.

As to `c1cn2cc(-c3ccc4cn[nH]c4c3)nc(Nc3ccc(N4CCOCC4)cc3)c2n1` [Entospletinib], the IC50 on SYK(S550F)-NL came out at 350 ± 12 nM; against SYK(S550Y)-NL, 95 ± 30 nM; against SYK(P342T)-NL, 700 ± 120 nM.
